# Apparent affinities of Ab-14 variants for a coronavirus HR2 peptide

Data: MIT Lincoln Laboratory AlphaSeq set, Engelhart et al. 2022, doi:10.1038/s41597-022-01779-4, as distributed in FLAb.

Binding partner: SARS-CoV-2 spike HR2 peptide, sequence PDVDLGDISGINAS.

Parent scFv Ab-14: VH joined to VL by a (GGGGS)3 linker. Changes lie in the heavy chain CDRs alone.
VH: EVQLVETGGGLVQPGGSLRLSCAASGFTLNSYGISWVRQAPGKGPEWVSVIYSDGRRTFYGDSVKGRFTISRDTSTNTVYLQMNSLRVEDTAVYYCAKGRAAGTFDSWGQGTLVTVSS
VL: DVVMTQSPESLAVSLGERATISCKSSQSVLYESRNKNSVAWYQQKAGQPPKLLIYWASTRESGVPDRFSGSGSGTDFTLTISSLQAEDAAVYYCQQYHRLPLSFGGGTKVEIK

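The parent was found by panning a naive human phage display library on the peptide. Library AAYL49 holds single substitutions and randomly drawn double and triple substitutions in the CDRs. The scFvs were displayed on barcoded MATa yeast, the peptide on MATalpha yeast. The frequency of each diploid, read from paired DNA barcodes, reflects how well the two displayed proteins bind. The ratio of observed to expected reads was calibrated, replicate by replicate, on BCL2-family standards whose Kd was known from biolayer interferometry. Each pool was mated in three replicate cultures.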

Positions count from residue 1 of the parent VH; F27K puts K in place of F. The read-out is the apparent dissociation constant on a log10 scale (nM): the lower, the stronger. A mean of the replicates is given; it leaves out those without a signal. "n.d." marks a missing value. The strain was present, yet no cells mated with the target were sequenced in that replicate, which points to weak or no binding. In this assay the parent's reference entry averaged 0.65; its copy inside this library read 4.11 (one replicate of three). As a blank, each scFv also met three strains without target: over library AAYL49, 15% of these pairings were detected, typically at 4.06 and seldom below 2.83. The control count says in how many pairings with the empty strains this scFv gave a signal, with their mean in brackets.

changes	replicates, log10 nM	mean log10 Kd (nM)	signal with controls
F27K D62C S107E	4.77 / 5.67 / 5.58	5.34	8 of 9 (4.69)
V50L R57T F59M	n.d. / n.d. / n.d.	n.d.	1 of 9 (3.40)
Y60F	2.30 / 1.97 / 2.16	2.14	1 of 9 (3.05)
Y32K R100N A102C	n.d. / n.d. / n.d.	n.d.	0 of 9
Y32A G33N V50D	n.d. / n.d. / n.d.	n.d.	1 of 9 (3.69)
R56V G61E V64S	n.d. / n.d. / 3.03	3.03	0 of 9
S31K S53Q F59W	n.d. / 4.44 / n.d.	4.44	1 of 9 (4.37)
S35A Y60F G99H	n.d. / n.d. / n.d.	n.d.	2 of 9 (4.18)
G26D Y52N G61F	n.d. / n.d. / n.d.	n.d.	0 of 9
D54M A101G S107P	n.d. / 4.31 / n.d.	4.31	3 of 9 (3.76)
G55Y G103L F105H	n.d. / n.d. / n.d.	n.d.	0 of 9
S53F T58C	4.40 / 2.45 / 2.88	3.25	0 of 9
V64L G103H F105H	n.d. / 3.90 / 3.93	3.91	0 of 9
I34S K65D S107I	3.44 / n.d. / n.d.	3.44	0 of 9
V50L R57L A101Q	n.d. / n.d. / n.d.	n.d.	0 of 9
N30D I51H T104N	n.d. / n.d. / n.d.	n.d.	0 of 9
L29P S35L A101R	5.24 / n.d. / 4.12	4.68	2 of 9 (3.81)
V64T T104Y F105V	n.d. / 3.90 / n.d.	3.90	2 of 9 (4.47)
Y32P G61M S107Q	n.d. / n.d. / n.d.	n.d.	2 of 9 (3.73)
Y60Q S63W F105C	n.d. / n.d. / n.d.	n.d.	1 of 9 (3.47)
T28D I34F S107Y	n.d. / 2.58 / n.d.	2.58	0 of 9
V50P G55A A102L	n.d. / n.d. / n.d.	n.d.	3 of 9 (4.55)
F27H D62F A101E	2.26 / 2.92 / 2.68	2.62	0 of 9
Y52W D62H V64K	n.d. / 4.21 / n.d.	4.21	0 of 9
G26R R56M A102T	n.d. / n.d. / 3.01	3.01	1 of 9 (2.92)
S63I	3.30 / 2.33 / 4.32	3.32	3 of 9 (4.44)
I51T D62L A101I	n.d. / n.d. / n.d.	n.d.	1 of 9 (4.67)
S31H G61R K65C	3.21 / 3.27 / 4.20	3.56	1 of 9 (4.42)
Y60S V64C S107P	n.d. / n.d. / n.d.	n.d.	0 of 9
I51C Y52C T58S	n.d. / n.d. / n.d.	n.d.	3 of 9 (3.50)
Y60T G99D T104Q	n.d. / n.d. / n.d.	n.d.	1 of 9 (3.31)
S31V R56V K65W	4.15 / 3.13 / 3.90	3.72	5 of 9 (4.28)
G26K I34S R100K	0.52 / 0.44 / 0.38	0.45	0 of 9
G61K D62I	n.d. / 2.62 / n.d.	2.62	2 of 9 (3.47)
T28C T104K	4.73 / n.d. / n.d.	4.73	5 of 9 (4.38)
S31K Y32K V50Q	n.d. / n.d. / n.d.	n.d.	1 of 9 (1.80)
G33P R100E A102T	n.d. / n.d. / n.d.	n.d.	0 of 9
G33H R57D S107A	n.d. / n.d. / 4.37	4.37	0 of 9
N30W R57V A102R	n.d. / n.d. / n.d.	n.d.	0 of 9
L29G I51T S63D	n.d. / n.d. / n.d.	n.d.	0 of 9
I51E Y52K T104D	5.79 / 3.55 / 4.03	4.45	8 of 9 (4.92)
S31I R57L S107I	n.d. / n.d. / n.d.	n.d.	4 of 9 (3.47)
I34G R56M G61D	4.43 / n.d. / 5.19	4.81	5 of 9 (4.24)
N30K F59C G99D	n.d. / n.d. / n.d.	n.d.	1 of 9 (4.43)
R57N Y60I D106K	3.04 / n.d. / n.d.	3.04	0 of 9
G33D S53N R57F	n.d. / 3.32 / n.d.	3.32	2 of 9 (3.96)
Y32Q V50M I51N	n.d. / n.d. / 4.93	4.93	1 of 9 (3.10)
F27Q G99P S107K	n.d. / n.d. / n.d.	n.d.	0 of 9
T28C R56N Y60H	3.37 / 3.03 / 3.47	3.29	5 of 9 (4.79)
V50R S53Q D106K	n.d. / n.d. / 4.98	4.98	1 of 9 (2.95)
G99S A101I	2.18 / 1.71 / 2.20	2.03	3 of 9 (3.51)

Repeated from above, the 8 best binders with a signal in all replicates:

changes,"replicates, log10 nM",mean log10 Kd (nM),signal with controls
G26K I34S R100K,0.52 / 0.44 / 0.38,0.45,0 of 9
G99S A101I,2.18 / 1.71 / 2.20,2.03,3 of 9 (3.51)
Y60F,2.30 / 1.97 / 2.16,2.14,1 of 9 (3.05)
F27H D62F A101E,2.26 / 2.92 / 2.68,2.62,0 of 9
S53F T58C,4.40 / 2.45 / 2.88,3.25,0 of 9
T28C R56N Y60H,3.37 / 3.03 / 3.47,3.29,5 of 9 (4.79)
S63I,3.30 / 2.33 / 4.32,3.32,3 of 9 (4.44)
S31H G61R K65C,3.21 / 3.27 / 4.20,3.56,1 of 9 (4.42)